Assay [1] concerns the target Amine oxidase [flavin-containing] B (Homo sapiens, UniProt P27338). It counts as cell-based, BTI-TN-5B1-4.
The next assay is filed under the species Homo sapiens. The assay is described as follows: Selectivity index, ratio of IC50 for human recombinant MAOA to IC50 for human recombinant MAOB.

Protein sequences, listed by entry. Tags and fused reporters are not part of them.
UniProt P27338, whole entry: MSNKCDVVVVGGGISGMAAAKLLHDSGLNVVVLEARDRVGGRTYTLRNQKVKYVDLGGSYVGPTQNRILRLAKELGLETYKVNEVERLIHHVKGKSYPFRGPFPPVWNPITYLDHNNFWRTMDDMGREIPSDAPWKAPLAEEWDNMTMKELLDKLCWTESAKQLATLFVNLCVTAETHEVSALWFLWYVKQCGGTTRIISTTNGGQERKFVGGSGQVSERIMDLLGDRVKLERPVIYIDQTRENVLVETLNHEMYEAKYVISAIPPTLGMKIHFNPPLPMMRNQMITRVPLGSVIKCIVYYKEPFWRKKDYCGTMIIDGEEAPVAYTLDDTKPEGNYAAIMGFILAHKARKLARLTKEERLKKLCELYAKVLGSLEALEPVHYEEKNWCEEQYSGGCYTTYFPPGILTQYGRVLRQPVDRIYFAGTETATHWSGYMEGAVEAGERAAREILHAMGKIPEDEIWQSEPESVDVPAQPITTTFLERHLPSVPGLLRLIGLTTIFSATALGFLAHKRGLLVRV

Consider 48 molecules from ChEMBL document CHEMBL1153941, “Synthesis, molecular modeling, and selective inhibitory activity against human monoamine oxidases of 3-carboxamido-7-substituted coumarins” (J Med Chem, 2009).

Structures are written as SMILES.

Consider `Cc1ccc(NC(=O)c2cc3ccccc3oc2=O)cc1`, for which half-maximal inhibition in assay [1] (IC50) required 710 nM.
Consider `CC(C)CNC(=O)c1cc2ccc(OCc3ccccc3)cc2oc1=O`, for which the IC50 in assay [1] was 9590 nM.
On the same count and under the same terms, under `COc1ccc(NC(=O)c2cc3ccc(OCc4ccccc4)c(C)c3oc2=O)cc1OC` stands 4980 nM.
Still for that read-out and setting: the figure for `CC(C)c1ccc(NC(=O)c2cc3ccccc3oc2=O)cc1` is 650 nM.
Consider `O=C(O)c1ccc(NC(=O)c2cc3ccccc3oc2=O)cc1`, for which, in the assay filed under Homo sapiens, the Ratio IC50 is 8.7. For the same molecule, the 50% inhibitory concentration (IC50) in assay [1] turned out to be 1140 nM.
On to `CC(C)NC(=O)c1cc2ccccc2oc1=O`, for which the Ratio IC50 in the assay listed under Homo sapiens was greater than 3.9. Moreover, the IC50 in assay [1] was found to be 25400 nM.
Consider `CN(C(=O)c1cc2ccc(OCc3ccccc3)cc2oc1=O)c1ccccc1`, for which the Ratio IC50 in the assay listed under Homo sapiens is greater than 42. The same molecule came in with an IC50 in assay [1] of 2370 nM.
In the same order, the values of `O=C(NC1CCCCC1)c1cc2ccccc2oc1=O` are greater than 200 and 500 nM.
`COc1cc(NC(=O)c2cc3ccc(OCc4ccc(F)cc4)cc3oc2=O)cc(OC)c1` returned an IC50 in assay [1] of 21600 nM.
`O=C(Nc1cccc(F)c1)c1cc2ccccc2oc1=O`: in the assay filed under Homo sapiens, the Ratio IC50 was greater than 400. In assay [1], this molecule showed a concentration for half-maximal inhibition (IC50) of 250 nM.
Turning to `O=C(Nc1ccccc1)c1cc2ccccc2oc1=O`, the IC50 in assay [1] is 760 nM.
Regarding `N#Cc1c(F)c(F)c(NC(=O)c2cc3ccc(OCc4ccc(F)cc4)cc3oc2=O)c(F)c1F`, 3450 nM corresponded to half-maximal inhibition in assay [1] (IC50).
Same read-out and setting: the figure for `COc1ccc(NC(=O)c2cc3ccccc3oc2=O)cc1OC` is 860 nM; for `CCc1ccc(NC(=O)c2cc3ccccc3oc2=O)cc1` it is 890 nM.
Regarding `O=C(NC1CCCCC1)c1cc2ccc(OCc3ccccc3)cc2oc1=O`, the Ratio IC50 in the assay filed under Homo sapiens is greater than 1.5. Further, the IC50 in assay [1] is 64400 nM.
The matching figures for `CN(C(=O)c1cc2ccccc2oc1=O)c1ccccc1`: greater than 11 and 8890 nM.
The matching figures for `CC(C)CNC(=O)c1cc2ccccc2oc1=O`: greater than 31 and 3270 nM.
As to `COc1cc(NC(=O)c2cc3ccccc3oc2=O)cc(OC)c1`, the Ratio IC50 in the assay filed under Homo sapiens was 15. The molecule also showed an IC50 in assay [1] of 4180 nM.
In the case of `O=C(Nc1c(F)c(F)c(F)c(F)c1F)c1cc2ccccc2oc1=O`, in the assay listed under Homo sapiens, the Ratio IC50 is greater than 217. Moreover, the IC50 in assay [1] came out at 460 nM.
With `O=C(Nc1ccc(F)cc1)c1cc2ccccc2oc1=O`, half-maximal inhibition in assay [1] (IC50) was put at 67 nM.
With `Cc1ccc(C)c(NC(=O)c2cc3ccccc3oc2=O)c1`, the Ratio IC50 in the assay filed under Homo sapiens is 0.71. In assay [1], the IC50 is 22400 nM.
Consider `Cc1cccc(Cl)c1NC(=O)c1cc2ccccc2oc1=O`, for which the Ratio IC50 in the assay listed under Homo sapiens was greater than 5.2. This molecule also showed an IC50 in assay [1] of 19100 nM.
In the case of `COc1ccc(NC(=O)c2cc3ccc(OCc4ccccc4)cc3oc2=O)cc1OC`, the Ratio IC50 in the assay filed under Homo sapiens was greater than 23. This molecule returned an IC50 in assay [1] of 4390 nM.
In the case of `O=C(NNc1ccccc1)c1cc2ccc(OCc3ccccc3)cc2oc1=O`, the Ratio IC50 in the assay filed under Homo sapiens is 9.2. It took 4520 nM to reach half-maximal inhibition in assay [1] (IC50).
`CSc1ccc(NC(=O)c2cc3ccccc3oc2=O)cc1` registered an IC50 in assay [1] of 2840 nM.
Turning to `NCCNC(=O)c1cc2ccccc2oc1=O`, the Ratio IC50 in the assay listed under Homo sapiens was greater than 13. The same molecule returned an IC50 in assay [1] of 7680 nM.
In the case of `O=C(Nc1ccccc1Cc1ccccc1)c1cc2ccc(OCc3ccccc3)cc2oc1=O`, the IC50 in assay [1] turned out to be 63500 nM.
Same read-out and setting: the figure for `N#Cc1c(F)c(F)c(NC(=O)c2cc3ccccc3oc2=O)c(F)c1F` is 860 nM.
As to `Cc1ccc(NC(=O)c2cc3ccccc3oc2=O)cc1C`, the Ratio IC50 in the assay listed under Homo sapiens stood at 49. Further, in assay [1], the IC50 came out at 380 nM.
`CC(C)c1ccc(NC(=O)c2cc3ccc(OCc4ccccc4)cc3oc2=O)cc1` returned an IC50 in assay [1] of 3690 nM.
Regarding `O=C(Nc1cccc(C(F)(F)F)c1)c1cc2ccccc2oc1=O`, in the assay filed under Homo sapiens, the Ratio IC50 was greater than 400. Besides, it took 250 nM to reach half-maximal inhibition in assay [1] (IC50).
In assay [1], `CS(=O)(=O)c1ccc(NC(=O)c2cc3ccccc3oc2=O)cc1` had an IC50 of 1.4 nM.
With `Cc1cccc(Cl)c1NC(=O)c1cc2ccc(OCc3ccccc3)cc2oc1=O`, in assay [1], the IC50 came to 61500 nM.
`Cc1cccc(C)c1NC(=O)c1cc2ccccc2oc1=O` came in with an IC50 in assay [1] of 1290 nM.
`O=C(Nc1c(F)c(F)nc(F)c1F)c1cc2ccccc2oc1=O`: the Ratio IC50 in the assay filed under Homo sapiens is 20. In addition, the midpoint of inhibition in assay [1], the IC50, lay at 580 nM.
On to `N#Cc1c(F)c(F)c(NC(=O)c2cc3ccc(OCc4ccccc4)cc3oc2=O)c(F)c1F`, for which, in the assay listed under Homo sapiens, the Ratio IC50 stood at 3.7. The molecule also had an IC50 in assay [1] of 16500 nM.
In the same order, the values of `COc1cccc(NC(=O)c2cc3ccccc3oc2=O)c1` are greater than 156 and 640 nM.
`O=C(Nc1c(F)cccc1F)c1cc2ccccc2oc1=O` displayed an IC50 in assay [1] of 9230 nM.
`Cc1cc(C)cc(NC(=O)c2cc3ccccc3oc2=O)c1`: the Ratio IC50 in the assay filed under Homo sapiens was 25. In addition, the IC50 in assay [1] was determined as 700 nM.
Consider `Cc1cccc(Cl)c1NC(=O)c1cc2ccc(OCc3ccc(F)cc3)cc2oc1=O`, for which, in assay [1], the IC50 worked out at 41600 nM.
Still for that read-out and setting: under `COc1cc(NC(=O)c2cc3ccc(OCc4ccccc4)cc3oc2=O)cc(OC)c1` stands 3360 nM; under `COc1ccc(NC(=O)c2cc3ccc(OCc4ccc(F)cc4)cc3oc2=O)cc1OC`, 2870 nM.
As to `O=C(Nc1ccccc1Cc1ccccc1)c1cc2ccccc2oc1=O`, the Ratio IC50 in the assay listed under Homo sapiens was greater than 110. Also, it took 910 nM to reach half-maximal inhibition in assay [1] (IC50).
Molecule `Cc1cccc(NC(=O)c2cc3ccccc3oc2=O)c1` came in with an IC50 in assay [1] of 600 nM.
As for `Cc1ccc(NC(=O)c2cc3ccccc3oc2=O)c(C)c1`, in the assay listed under Homo sapiens, the Ratio IC50 came to 0.89. The IC50 in assay [1] turned out to be 13700 nM.
Turning to `O=C(NCc1ccccc1)c1cc2ccc(OCc3ccccc3)cc2oc1=O`, the Ratio IC50 in the assay listed under Homo sapiens was greater than 101. Also, in assay [1], half-maximal inhibition (IC50) required 990 nM.
Regarding `COc1ccc(NC(=O)c2cc3ccccc3oc2=O)cc1`, the Ratio IC50 in the assay filed under Homo sapiens was greater than 122. This molecule registered an IC50 in assay [1] of 820 nM.
In the same order, the values of `Cc1cccc(NC(=O)c2cc3ccccc3oc2=O)c1C` are 1.1 and 18300 nM.
